Measurements reported in patent US10301320B2, “Compositions and methods of modulating 15-PGDH activity” (CASE WESTERN RESERVE UNIVERSITY, priority 2012, dated 2019).

Chains of the proteins cited; added tags and fusions are not shown.
UniProt P15428, whole entry: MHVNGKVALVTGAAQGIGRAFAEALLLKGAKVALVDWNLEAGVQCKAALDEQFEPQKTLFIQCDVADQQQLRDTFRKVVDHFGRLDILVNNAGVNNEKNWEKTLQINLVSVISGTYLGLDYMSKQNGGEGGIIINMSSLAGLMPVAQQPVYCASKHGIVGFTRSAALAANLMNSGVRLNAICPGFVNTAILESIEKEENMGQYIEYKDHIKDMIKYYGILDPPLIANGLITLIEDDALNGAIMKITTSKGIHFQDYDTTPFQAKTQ

Tests used:
[1] = molecular target: recombinant 15-PGDH protein (Homo sapiens (Human), UniProt P15428); experiment: Melting temperature shift of recombinant 15-PGDH (SYPRO Orange); assay type: binding
[2] = molecular target: 15-PGDH activity in colon cancer cell lines (Homo sapiens (Human), UniProt P15428); experiment: Total 15-PGDH activity in compound treated cell lines (tritium transfer); assay type: cell-based; conditions: […] for 48 hours (FIG. 10); FIG. 13 for SW124531
[3] = test system: 15-PGDH mRNA in colon cancer cell lines; experiment: 15-PGDH mRNA levels by real-time PCR; conditions: treated colon cancer cell lines
A549 cells = experiment: PGE2 levels in medium of IL1-beta stimulated A549 cells; assay type: cell-based

COc1ccc(-c2cc(C(F)(F)F)n3nc(C(=O)N4CCCCC4)cc3n2)cc1
Direct binding to recombinant 15-PGDH [1]: evidence of direct binding to 15-PGDH | Total 15-PGDH activity in treated cells [2]: increasing 15-PGDH activity in most cell lines | 15-PGDH mRNA levels [3]: do not in general alter 15-PGDH mRNA levels | Effect on PGE2 levels in medium, in words (A549 cells): clear inhibition of 15-PGDH activity
